{"sequences": {"note": "Sequences of proteins named here, by UniProt entry; tags and fusion partners are left off. Residues count along the entry.", "UniProt P03951, 19-387 limits assumed": "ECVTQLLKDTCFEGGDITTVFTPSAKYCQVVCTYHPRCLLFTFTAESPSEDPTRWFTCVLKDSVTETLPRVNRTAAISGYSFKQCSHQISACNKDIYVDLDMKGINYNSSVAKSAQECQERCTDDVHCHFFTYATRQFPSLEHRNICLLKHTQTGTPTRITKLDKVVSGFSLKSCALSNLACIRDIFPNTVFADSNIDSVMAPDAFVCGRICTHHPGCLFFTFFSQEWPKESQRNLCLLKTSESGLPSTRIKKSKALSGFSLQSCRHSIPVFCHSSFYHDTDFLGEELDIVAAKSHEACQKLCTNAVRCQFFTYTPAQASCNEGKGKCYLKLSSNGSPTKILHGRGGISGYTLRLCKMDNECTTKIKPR", "UniProt P03951, 388-625 limits assumed": "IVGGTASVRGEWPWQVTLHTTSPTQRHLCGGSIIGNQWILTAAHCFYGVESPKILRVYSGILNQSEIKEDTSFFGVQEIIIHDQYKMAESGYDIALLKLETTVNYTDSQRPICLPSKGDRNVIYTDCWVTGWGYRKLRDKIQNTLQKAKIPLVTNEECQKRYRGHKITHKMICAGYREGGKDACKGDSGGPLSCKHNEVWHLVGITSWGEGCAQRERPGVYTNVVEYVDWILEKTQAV"}, "source": "PubChem BioAssay AID798", "about": "(PCMD, 2007)", "note": "This is a selection; strong and weak results do not stand in their true shares. Some structures show a salt or complex split into parts, the way the source records it. Calls of active or inactive are those of the source.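 How the source made its calls: active means inhibition of at least 40%; inactive means inhibition below 40%.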", "data": [{"molecular_target": "Coagulation factor XI (Homo sapiens) (UniProt P03951)", "assay": "human FXIa protease inhibitors, primary screen, biochemical, 1536-well (AID 798);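 further: fluorescence of freed AMC excited at 355 nm; 0% = enzyme without compound and 100% = no enzyme blank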", "details": "purified FXIa, Boc-Glu-Ala-Arg-AMC fluorogenic substrate; at 5 µM; stronger effect = higher value", "values": [{"smiles": "CP(=O)(Oc1ccccc1)OC(c1ccccc1)C(F)(F)F", "note": "(stereo not drawn)", "inhibition": "inactive: 1.13%"}, {"smiles": "CP(=O)(Nc1ccc(SC(F)(F)F)cc1)Oc1ccc(Cl)cc1", "note": "(stereo not drawn)", "inhibition": "inactive: 3.41%"}, {"smiles": "Cc1cccc(C)c1OP(C)(=O)Nc1ccc(SC(F)(F)F)cc1", "note": "(stereo not drawn)", "inhibition": "inactive: 0.41%"}, {"smiles": "Cc1cc(C)cc(OP(C)(=O)Nc2ccc(SC(F)(F)F)cc2)c1", "note": "(stereo not drawn)", "inhibition": "inactive: 17.3%"}, {"smiles": "CCc1ccc(OP(C)(=O)N2CCN(c3ccc([N+](=O)[O-])cc3)CC2)cc1", "note": "(stereo not drawn)", "inhibition": "inactive: -2.24%"}, {"smiles": "CP(=O)(NC(=O)Nc1ccccc1)Oc1ccccc1", "note": "(stereo not drawn)", "inhibition": "inactive: 2.64%"}, {"smiles": "CCOP(C)(=S)SCC(=O)NC(C)C(=O)O", "note": "(stereo not drawn)", "inhibition": "inactive: 3.52%"}, {"smiles": "CCOC(=O)c1ccc(NP(C)(=O)Oc2ccc(OC)cc2)cc1", "note": "(stereo not drawn)", "inhibition": "inactive: 7.21%"}, {"smiles": "CP(=O)(Nc1ccccn1)Oc1ccc(Cl)cc1", "note": "(stereo not drawn)", "inhibition": "inactive: -4.6%"}, {"smiles": "CP(=S)(Nn1cnnc1)Oc1ccccc1", "note": "(stereo not drawn)", "inhibition": "inactive: 1.56%"}, {"smiles": "COc1ccccc1OP(C)(=O)Nc1ccccc1", "note": "(stereo not drawn)", "inhibition": "inactive: -7.5%"}, {"smiles": "CP(=O)(Nc1ccccc1Br)Oc1ccccc1", "note": "(stereo not drawn)", "inhibition": "inactive: 3.47%"}, {"smiles": "Cc1cccc(C)c1OP(C)(N)=O", "note": "(stereo not drawn)", "inhibition": "inactive: -3.32%"}, {"smiles": "CC(C)(C)c1ccc(OP(C)(=O)Nc2ccc(SC(F)(F)F)cc2)cc1", "note": "(stereo not drawn)", "inhibition": "inactive: 8.85%"}, {"smiles": "O=[N+]([O-])c1ccc2c(c1)C=Nc1ccccc1O2", "inhibition": "inactive: -2.45%"}, {"smiles": "CCOC(=O)c1ccc(NP(C)(=O)Oc2ccccc2)cc1", "note": "(stereo not drawn)", "inhibition": "inactive: -35.9%"}, {"smiles": "Cc1ccc(NP(C)(=O)Oc2ccccc2)c(C)c1", "note": "(stereo not drawn)", "inhibition": "inactive: -5.56%"}, {"smiles": "COc1ccccc1OP(C)(=O)Nc1ccc(C)cc1", "note": "(stereo not drawn)", "inhibition": "inactive: 12.2%"}, {"smiles": "COc1ccc(OP(C)(=O)Nc2cccc(F)c2)cc1", "note": "(stereo not drawn)", "inhibition": "inactive: 5.58%"}, {"smiles": "COc1ccccc1OP(C)(=O)Nc1cc(Cl)ccc1C", "note": "(stereo not drawn)", "inhibition": "inactive: -4.7%"}, {"smiles": "Cc1cc(C)cc(OP(C)(N)=O)c1", "note": "(stereo not drawn)", "inhibition": "inactive: 2.93%"}, {"smiles": "CCN(CC)CCCOC(=O)C(O)(c1ccccc1)c1ccccc1", "inhibition": "inactive: 0.86%"}, {"smiles": "COc1ccccc1OP(C)(=O)Nc1cccc(Br)c1", "note": "(stereo not drawn)", "inhibition": "inactive: 1.24%"}, {"smiles": "Cc1cc(C)cc(OP(C)(=O)Nc2ccc(C)cc2C)c1", "note": "(stereo not drawn)", "inhibition": "inactive: -8.64%"}, {"smiles": "CCOC(=O)c1ccc(NP(C)(=O)Oc2cc(C)cc(C)c2)cc1", "note": "(stereo not drawn)", "inhibition": "inactive: -4.77%"}, {"smiles": "CP(=O)(Nc1cccc(Br)c1)Oc1ccccc1", "note": "(stereo not drawn)", "inhibition": "inactive: -0.93%"}, {"smiles": "Cc1cc(C)cc(OP(C)(=O)Nc2ccccn2)c1", "note": "(stereo not drawn)", "inhibition": "inactive: -8.34%"}, {"smiles": "Cc1ccc(C)c(NP(C)(=O)Oc2ccccc2)c1", "note": "(stereo not drawn)", "inhibition": "inactive: 22.4%"}, {"smiles": "O=C(O)c1cccc(Nc2c([N+](=O)[O-])cc([N+](=O)[O-])cc2[N+](=O)[O-])c1", "inhibition": "inactive: -4.16%"}, {"smiles": "CC1=NCCc2c1[nH]c1ccccc21.O=[N+]([O-])c1cc([N+](=O)[O-])c(O)c([N+](=O)[O-])c1", "inhibition": "inactive: -5.97%"}, {"smiles": "CCOC(=O)C(CC)C1=NC(C)(C)Cc2ccccc21.O=[N+]([O-])c1cc([N+](=O)[O-])c(O)c([N+](=O)[O-])c1", "note": "(stereo not drawn)", "inhibition": "inactive: 1.04%"}, {"smiles": "O=[N+]([O-])c1cc([N+](=O)[O-])c(Nc2nnnn2CCO)c([N+](=O)[O-])c1", "inhibition": "inactive: 0.56%"}, {"smiles": "CN1CCCCC1COC(=O)C1(O)c2ccccc2CCc2ccccc21", "note": "(stereo not drawn)", "inhibition": "inactive: 8.94%"}, {"smiles": "COc1ccccc1OP(C)(=O)Nc1c(C)cccc1C", "note": "(stereo not drawn)", "inhibition": "inactive: -13.9%"}, {"smiles": "CP(=O)(Nc1ccc(SC(F)(F)F)cc1)Oc1ccccc1", "note": "(stereo not drawn)", "inhibition": "inactive: -6.99%"}, {"smiles": "CCCOc1ccc(NP(C)(=O)Oc2ccc(Cl)cc2)cc1", "note": "(stereo not drawn)", "inhibition": "inactive: 2.45%"}, {"smiles": "O=[N+]([O-])c1cc([N+](=O)[O-])c(-n2nnc3ccccc32)c([N+](=O)[O-])c1", "inhibition": "inactive: 1.68%"}, {"smiles": "Cc1nc2ccc3ccccc3c2s1.O=[N+]([O-])c1cc([N+](=O)[O-])c(O)c([N+](=O)[O-])c1", "inhibition": "inactive: 0.91%"}, {"smiles": "CP(=O)(Nc1ccc(SC(F)(F)F)cc1)Oc1ccc(F)cc1", "note": "(stereo not drawn)", "inhibition": "inactive: 1.01%"}, {"smiles": "CCOP(C)(=S)SCC(=O)NC(C)(CC)C(=O)O", "note": "(stereo not drawn)", "inhibition": "inactive: -10.8%"}, {"smiles": "CP(=O)(Nc1ccc2c(c1)OCCO2)Oc1ccccc1", "note": "(stereo not drawn)", "inhibition": "inactive: 16.3%"}, {"smiles": "Cc1ccccc1NP(C)(=O)Nc1ccccc1C", "inhibition": "inactive: 2.78%"}, {"smiles": "COc1ccc(OP(C)(=O)Nc2cccc(Br)c2)cc1", "note": "(stereo not drawn)", "inhibition": "inactive: 0.32%"}, {"smiles": "COc1ccc(NP(C)(=O)Oc2ccccc2OC)cc1", "note": "(stereo not drawn)", "inhibition": "inactive: -4.9%"}, {"smiles": "CN(C)CCOC(=O)C(O)(c1ccccc1)C1CCCCC1", "note": "(stereo not drawn)", "inhibition": "inactive: 4.6%"}, {"smiles": "O=[N+]([O-])c1cc([N+](=O)[O-])c(NCC2CCS(=O)(=O)C2)c([N+](=O)[O-])c1", "note": "(stereo not drawn)", "inhibition": "inactive: -1.4%"}, {"smiles": "Cc1cc(-c2cccc3ccccc23)c(C)cn1.O=[N+]([O-])c1cc([N+](=O)[O-])c(O)c([N+](=O)[O-])c1", "inhibition": "inactive: 4.69%"}, {"smiles": "O=[N+]([O-])c1ccc(OP2(=O)COCCO2)cc1", "note": "(stereo not drawn)", "inhibition": "inactive: -3.45%"}, {"smiles": "COc1ccc(OP(C)(=O)Nc2ccc(SC(F)(F)F)cc2)cc1", "note": "(stereo not drawn)", "inhibition": "inactive: -4.12%"}, {"smiles": "CCOC(=O)c1ccc(NP(C)(=O)Oc2ccc(F)cc2)cc1", "note": "(stereo not drawn)", "inhibition": "inactive: -6.47%"}, {"smiles": "CCN(CC)CCCOC(=O)C(O)(c1ccccc1)C1CCCCC1", "note": "(stereo not drawn)", "inhibition": "inactive: -5.46%"}, {"smiles": "CCCCCOc1ccc(NP(C)(=O)Oc2ccc(Cl)cc2Cl)cc1", "note": "(stereo not drawn)", "inhibition": "inactive: 3.22%"}, {"smiles": "CP(=O)(Nc1ccccc1)Oc1ccc(F)cc1", "note": "(stereo not drawn)", "inhibition": "inactive: 2.47%"}, {"smiles": "CC(C)c1ccc(OP(C)(=O)Nc2ccc(SC(F)(F)F)cc2)cc1", "note": "(stereo not drawn)", "inhibition": "inactive: 4.97%"}, {"smiles": "CP(=O)(Nc1ccccc1F)Oc1ccccc1", "note": "(stereo not drawn)", "inhibition": "inactive: -8.9%"}, {"smiles": "O=C(OCCN1CCN(CCOCc2ccccc2)CC1)C(O)(c1ccccc1)c1ccccc1", "inhibition": "inactive: 7.02%"}, {"smiles": "O=C(OC1CN2CCC1CC2)c1ccc([N+](=O)[O-])cc1", "note": "(stereo not drawn)", "inhibition": "inactive: 2.34%"}, {"smiles": "COc1ccc2c(c1O)-c1c(O)c(OC)cc3c1[C@H](C2)[N+](C)(C)CC3.O=[N+]([O-])c1cc([N+](=O)[O-])c([O-])c([N+](=O)[O-])c1[O-]", "inhibition": "inactive: 4.92%"}, {"smiles": "COc1ccccc1OP(C)(=O)Nc1ccc(Br)cc1", "note": "(stereo not drawn)", "inhibition": "inactive: -2.9%"}, {"smiles": "CN(C)CCOC(=O)C(O)(c1ccccc1)C1CCCC1", "note": "(stereo not drawn)", "inhibition": "inactive: -6.35%"}, {"smiles": "COc1ccc(OP(C)(=O)Nc2ccccn2)cc1", "note": "(stereo not drawn)", "inhibition": "inactive: 14.7%"}, {"smiles": "O=[N+]([O-])c1cc([N+](=O)[O-])c(Nc2ccccn2)c([N+](=O)[O-])c1", "inhibition": "inactive: -3.46%"}, {"smiles": "Cc1c(NP(C)(=O)Oc2ccc(C(C)C)cc2)c(=O)n(-c2ccccc2)n1C", "note": "(stereo not drawn)", "inhibition": "inactive: -7.63%"}, {"smiles": "CCc1ccc(OP(C)(=O)O)cc1", "inhibition": "inactive: 3.78%"}, {"smiles": "COc1ccccc1OP(C)(=O)Nc1ccc(C)cc1C", "note": "(stereo not drawn)", "inhibition": "inactive: -6.67%"}, {"smiles": "CP(=O)(Nc1ccccn1)Oc1ccccc1", "note": "(stereo not drawn)", "inhibition": "inactive: 4.5%"}, {"smiles": "Cc1cc(C)cc(OP(C)(=O)Nc2cccc(C(F)(F)F)c2)c1", "note": "(stereo not drawn)", "inhibition": "inactive: 0.89%"}, {"smiles": "COc1ccc(OP(C)(=O)Nc2ccccc2Br)cc1", "note": "(stereo not drawn)", "inhibition": "inactive: 7.41%"}, {"smiles": "COc1ccccc1OP(C)(=O)Nc1ccc(C)c(C)c1", "note": "(stereo not drawn)", "inhibition": "inactive: 1.9%"}, {"smiles": "Cc1nc2ccc3ccccc3c2o1.O=[N+]([O-])c1cc([N+](=O)[O-])c(O)c([N+](=O)[O-])c1", "inhibition": "inactive: -4.6%"}, {"smiles": "CP(=O)(OCCOc1ccccc1)OCCOc1ccccc1", "inhibition": "inactive: -2.18%"}, {"smiles": "CP(=O)(Nc1ccc(Cl)cc1Cl)Oc1ccccc1", "note": "(stereo not drawn)", "inhibition": "inactive: 0.75%"}, {"smiles": "CP(=O)(OC12CC3CC(CC(C3)C1)C2)OC12CC3CC(CC(C3)C1)C2", "inhibition": "inactive: -4.75%"}, {"smiles": "CCOC(=O)c1ccc(NP(C)(=O)Oc2ccc(Cl)cc2)cc1", "note": "(stereo not drawn)", "inhibition": "inactive: 5.54%"}, {"smiles": "COc1ccc(OP(C)(=O)Nc2ccc(Br)cc2)cc1", "note": "(stereo not drawn)", "inhibition": "inactive: -4.39%"}, {"smiles": "CCN(CC)CC(O)COC(=O)C(O)(c1ccccc1)C1CCCCC1", "note": "(stereo not drawn)", "inhibition": "inactive: -1.81%"}, {"smiles": "CCc1ccc(OP(C)(=O)Nc2cccnc2)cc1", "note": "(stereo not drawn)", "inhibition": "inactive: -5.47%"}, {"smiles": "CP(=O)(Oc1ccccc1)N1CCOC1=O", "note": "(stereo not drawn)", "inhibition": "inactive: 9.28%"}, {"smiles": "O=C(OCCCN1CCCC1)C(O)(c1ccccc1)C1CCCCC1", "note": "(stereo not drawn)", "inhibition": "inactive: 3.1%"}, {"smiles": "CP(=O)(Nc1ccc(Cl)cc1)Oc1ccc(F)cc1", "note": "(stereo not drawn)", "inhibition": "inactive: -5%"}, {"smiles": "CC(C)(C)c1ccc(OP(C)(=O)O)cc1", "inhibition": "inactive: 2.39%"}, {"smiles": "COc1ccccc1OP(C)(=O)Nc1ccccc1Br", "note": "(stereo not drawn)", "inhibition": "inactive: -0.04%"}, {"smiles": "CN(C)C(=O)c1c([N+](=O)[O-])cc([N+](=O)[O-])cc1[N+](=O)[O-]", "inhibition": "inactive: -2.29%"}]}]}
